{"sequences": {"note": "Amino acid sequences for entries named in this document (tags omitted).", "UniProt P08913, whole entry": "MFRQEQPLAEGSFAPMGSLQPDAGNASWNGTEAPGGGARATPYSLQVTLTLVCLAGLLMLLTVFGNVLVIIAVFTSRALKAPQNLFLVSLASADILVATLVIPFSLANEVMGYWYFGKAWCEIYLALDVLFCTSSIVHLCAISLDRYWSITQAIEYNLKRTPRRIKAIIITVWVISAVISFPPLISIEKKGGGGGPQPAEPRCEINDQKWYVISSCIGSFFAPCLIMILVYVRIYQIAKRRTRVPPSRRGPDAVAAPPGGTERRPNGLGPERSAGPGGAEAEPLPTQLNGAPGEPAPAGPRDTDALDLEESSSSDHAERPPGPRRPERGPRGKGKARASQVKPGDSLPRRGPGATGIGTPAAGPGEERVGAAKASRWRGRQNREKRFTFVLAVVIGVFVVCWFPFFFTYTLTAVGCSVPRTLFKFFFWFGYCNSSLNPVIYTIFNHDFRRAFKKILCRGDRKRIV"}, "source": "BindingDB's records for doi:10.1007/bf02245606", "about": "(Janssen Research Foundation, 1996)", "target": "Alpha-2A adrenergic receptor (Homo sapiens, UniProt P08913)", "data": [{"molecule": "O=C1Cc2cc(CCN3CCN(c4nsc5ccccc45)CC3)c(Cl)cc2N1", "note": "[5-[2-(4-Benzo[d]isothiazol-3-yl-piperazin-1-yl)-ethyl]-6-chloro-1,3-dihydro-indol-2-one]", "values": [{"measurement": "Ki", "result": 160, "unit": "nM"}]}, {"molecule": "O=C1NCCN1CCN1CCC(c2cn(-c3ccc(F)cc3)c3ccc(Cl)cc23)CC1", "note": "[1-[2-[4-[5-chloro-1-(4-fluorophenyl)-indol-3-yl]-1-piperidyl]ethyl]imidazolidin-2-one]", "values": [{"measurement": "Ki", "result": 640, "unit": "nM"}]}]}
